{"sequences": {"note": "Chains of the proteins cited; added tags and fusions are not shown.", "UniProt Q96S37, whole entry G444S/V445L/I452V/Y455F": "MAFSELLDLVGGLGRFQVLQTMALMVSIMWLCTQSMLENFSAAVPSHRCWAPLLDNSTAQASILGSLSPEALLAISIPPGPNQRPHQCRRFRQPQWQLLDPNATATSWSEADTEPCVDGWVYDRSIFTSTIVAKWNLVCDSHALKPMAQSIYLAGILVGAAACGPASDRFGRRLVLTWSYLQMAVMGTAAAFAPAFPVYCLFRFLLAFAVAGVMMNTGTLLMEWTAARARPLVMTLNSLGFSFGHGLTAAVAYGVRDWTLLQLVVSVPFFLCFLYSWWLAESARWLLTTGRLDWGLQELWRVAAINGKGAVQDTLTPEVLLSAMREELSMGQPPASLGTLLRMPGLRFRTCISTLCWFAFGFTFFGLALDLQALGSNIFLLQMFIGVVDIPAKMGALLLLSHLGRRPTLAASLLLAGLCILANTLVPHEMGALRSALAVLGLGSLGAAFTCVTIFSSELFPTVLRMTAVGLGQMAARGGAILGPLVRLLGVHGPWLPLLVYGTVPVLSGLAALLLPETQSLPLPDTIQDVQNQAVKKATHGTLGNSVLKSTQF"}, "source": "paper PMC5054527", "about": "“Mechanism of high affinity inhibition of the human urate transporter URAT1” (Scientific Reports, 2016)", "biological_target": "T1, h-r TM10 URAT1 chimera (Homo sapiens, UniProt Q96S37, G444S/I452V/V445L/Y455F)", "T1 construct": "expressed in transfected cells; host or cells: HEK-293T", "assay": "URAT1 uric acid transport activity assay", "format": "cell-based, human/rat", "conditions": "MES pH 5.5, 100 μM 14C-uric acid", "from_the_text": "hURAT1 (GenBank BC053348.1) and rURAT1 (NCBI NM_001034943.1) genes were purchased from Origene Technologies, Inc. and subcloned into pCMV6/neo using NotI, creating pCMV6/neo-hURAT1 and pCMV6/neo-rURAT1. Mutants were produced by polymerase chain reaction (PCR) or site-directed mutagenesis using the QuikChange Lightning Multi Site-Directed Mutagenesis Kit (Agilent Technologies). […] Detailed methods are provided in Supplementary Methods, and primers are listed in Supplementary Table 1. […] Residues in rURAT1 and hOAT1 that correspond to the residues in hURAT1 were identified from aligned protein sequences (Supplementary Fig. 1)[50].\nDNA (10 μg) was mixed with 30 μl of DreamFect Gold (Boca Scientific) in 2 ml OptiMem (Life Technologies). […]\nCompounds were serially diluted into assay buffer and added to the cells for 5 minutes prior to addition of radiolabelled uric acid substrate. […] Each treatment was measured in triplicate. […]\nNonlinear regression analyses using GraphPad Prism software were used to calculate the potency of URAT1 inhibitors (IC50 values) from log (inhibitor) versus response - variable slope (four parameters) equations. Statistical significance was assessed using Student’s unpaired t-tests."}
{"smiles": "O=C(O)CSc1nnc(Br)n1-c1ccc(C2CC2)c2ccccc12", "note": "[lesinurad, 2-((5-bromo-4-(4-cyclopropylnaphthalen-1-yl)-4H-1,2,4-triazol-3-yl)thio)acetic acid]", "values": [{"measurement": "IC50", "value": "4.4 ± 1.3", "unit": "µM"}]}
